This assay in a line: NCI Yeast Anticancer Drug Screen. Data for the rad50EPP+ strain (AID 151).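 Note: 0% = growth of vehicle-treated control cultures.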 Conditions: S. cerevisiae rad50 mutant strain, active compounds read high. On the procedure:
Growth inhibition of yeast strains with defined genetic alterations is measured as a screen for potential anti-cancer activity. Selected strains with alterations in DNA damage repair or cell cycle control were exposed to compounds and growth inhibition was measured relative to vehicle treated controls. The strain used in this assay is rad50EPP+

Molecules are shown by their SMILES. The list shows a part of the results, in another mix than the full data. Some salts or complexes appear as unconnected parts, following the source record. Where a structure was tested more than once in an assay, its records may differ in their call. The source made the active and inactive calls. Cut-off read from the data, not from the text of the source: active = growth inhibition above about 70%; inactive = the rest.

With `[Au+].[Au+].c1ccc([PH+](c2ccccc2)c2ccccc2)cc1.c1ccc([PH+](c2ccccc2)c2ccccc2)cc1.n1n[n-]c(-c2nnn[n-]2)n1`, the growth inhibition (at 1.2 µM) is inactive: 6%; the growth inhibition (at 3.7 µM) is inactive: 55%; the growth inhibition (at 11.0 µM) was active: 98%; the growth inhibition (at 33.0 µM) was active: 98%; the growth inhibition (at 100.0 µM) is active: 98%.

Take `Cc1cc2ccccc2cc1C.O=[N+]([O-])c1cc([N+](=O)[O-])cc([N+](=O)[O-])c1`: the growth inhibition is inactive: 4% (at 1.2 µM); inactive: 5% (at 3.7 µM); inactive: 13% (at 11.0 µM); inactive: 34% (at 33.0 µM); active: 94% (at 100.0 µM).

`Cc1ccc2ccc3ccc4ccccc4c3c2c1.O=C1c2cc([N+](=O)[O-])ccc2-c2c1cc([N+](=O)[O-])cc2[N+](=O)[O-]`: the growth inhibition was inactive: 1% (at 1.2 µM); inactive: 6% (at 3.7 µM); inactive: 14% (at 11.0 µM); inactive: 23% (at 33.0 µM); inactive: 40% (at 100.0 µM).

For `[Au].[C-]#N.[C-]#N`, the growth inhibition is inactive: 5% (at 1.2 µM); inactive: 14% (at 3.7 µM); inactive: 13% (at 11.0 µM); inactive: 32% (at 33.0 µM); inactive: 53% (at 100.0 µM).

As for `Nc1ccccc1.O=[N+]([O-])c1cc([N+](=O)[O-])cc([N+](=O)[O-])c1`, the growth inhibition is, setting by setting: (at 1.2 µM) inactive: -3%; (at 3.7 µM) inactive: 19%; (at 11.0 µM) active: 71%; (at 33.0 µM) active: 99%; (at 100.0 µM) active: 99%.

`Cc1c2ccccc2cc2ccccc12.O=[N+]([O-])c1cc([N+](=O)[O-])c(O)c([N+](=O)[O-])c1`: the growth inhibition by setting is: (at 1.2 µM) inactive: 2%; (at 3.7 µM) inactive: 18%; (at 11.0 µM) inactive: 68%; (at 33.0 µM) active: 93%; (at 100.0 µM) active: 96%.

On to `[Au+].[N-]=[N+]=N.c1ccc([PH+](c2ccccc2)c2ccccc2)cc1`, for which the growth inhibition was inactive: 33% (at 1.2 µM); active: 97% (at 3.7 µM); active: 97% (at 11.0 µM); active: 92% (at 33.0 µM); active: 87% (at 100.0 µM).

Regarding `O=[N+]([O-])C(F)(COCC(O)CO)[N+](=O)[O-]` (stereo not given), the growth inhibition runs as follows: (at 1.2 µM) inactive: -6%; (at 3.7 µM) inactive: 3%; (at 11.0 µM) inactive: 31%; (at 33.0 µM) active: 75%; (at 100.0 µM) active: 92%.
